From PubChem BioAssay
Nrf2 inh = blocks Nrf2 signaling; A549 ARE-Fluc reporter, luciferase luminescence, 18-24 h; Potency, µM (top dose mostly 46 µM), without a hit: at the highest dose activity change, negative = inhibition, actives largely listed as inhibitors; actives 2.1% (n = 360,000); note: potency is the fitted concentration of half-maximal effect; % is set by controls: 0 for no effect and ±100 for the full control effect; nearly all actives have a fitted effect of over 60% in size
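Nrf2 activity is the BugLite luminescence, read 15 min after reagent at room temperature, following CellTiter-Fluor cytotoxicity readout (30 min, 37C). Compound titrations were applied for 18-24 h to 5000 A549 ARE_Fluc cells/well in 5% FBS OPTI-MEM.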
miR-21 reporter = miR-21 reporter, rising signal | HeLa miR-21 FLuc reporter, luciferase, 48 h | Potency, µM (highest dose often 38.3 µM), for inactives: at the top dose reporter change, positive = more light | 340,000 tested, under 10 active | AID 2288; active = well fitted rising curve with a large enough effect; inconclusive = small, poorly fitted or top-dose-only effect; inactive = no such curve, though single readings can be large or run the other way;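 further: % of control where 0% means no effect; miR-21 action dims this reporter so a rising signal means less miR-21 action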
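HeLa cells endogenously expressing miR-21, stably carrying CMV-driven firefly luciferase with a downstream miR-21 binding site, 2000 cells/well. Titrations up to approximately 40 uM, 48 hours; luciferase luminescence read.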
ClpP mod = qHTS Assay for Activators of ClpP | ATP-dependent Clp protease proteolytic subunit (Bacillus subtilis (strain 168)), P80244 | purified B. subtilis ClpP, FRET peptide cleavage, 20 min | Potency, µM (doses to about 57.5 µM), without a hit: at the highest dose activity change, negative = active | actives 1.9% (n = 340,000) | AID 651965, 2013; active = well fitted falling curve with a large enough effect; inconclusive = small, poorly fitted or top-dose-only effect; inactive = no such curve, though single readings can be large or run the other way; note: potency is the fitted concentration of half-maximal effect; the source files actives as falling curves though it sought activators and does not explain the sign; nearly all actives have a fitted effect of over 65% in size
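FRET quenching reversal measured ClpP activation: 10 microg/mL B. subtilis ClpP at pH 8 with the FRET-FV decapeptide, read at 430 nm after 320 nm excitation. The 20-min minus 0-min signal was scaled between DMSO/no-enzyme wells and ADEP (5.8 microM final).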
Nrf2 activator = activates Nrf2 signaling; AREc32 ARE-luciferase reporter (MCF7-derived line), luminescence, 24 h; Potency, µM (doses to about 46.1 µM), for the others: top-dose activation, hits mostly activators; actives 0.31% (n = 410,000); AID 624171; note: potency is the fitted concentration of half-maximal effect; % of control where 0% means no effect; nearly all actives have a fitted effect of over 65% in size
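Cells of the AREc32 ARE-luciferase line are plated in OPTI-MEM containing 5% FBS and left overnight at 37 deg C. Compounds are pinned in, incubation continues 24 hr, and firefly luciferase signal is then measured.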
A549 viability = counter-screen for Nrf2 inhibitors: cytotoxicity in A549 cells. A549 ARE-Fluc cells, CellTiter-Fluor viability, 18-24 h. Potency, µM (doses to about 46 µM), without a hit: at the top dose activity change, negative = cytotoxicity, actives largely listed as inhibitors. actives 0.16% (n = 390,000). AID 504648; note: potency is the fitted concentration of half-maximal effect; % is set by controls: 0 for no effect and ±100 for the full control effect
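Cytotoxicity counterscreen: CellTiter-Fluor fluorescence was measured in A549 ARE_Fluc cells after 18-24 h of compound exposure in a concentration series. The subsequent BugLite luminescent read reports ARE-luciferase activity.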
TCR act = T cell receptor activation; primary human leukocytes, anti-CD3, IL-2 HTRF, 48 h; Potency, µM (titrated, usually from 9.22 µM), for inactives: at the top dose activation of IL-2 secretion, most hits filed as activators; 330,000 tested, under 10 active; AID 504894; note: % of control where 0% means no effect
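Activity was scored as IL-2 release from primary human leukocytes given only a TCR signal (a-CD3 beads) plus compound for 48 hr. Detection used a two-antibody HTRF format read at 665nm.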
* hit, by the source's call; ? = inconclusive; nt = not tested or not shown; [ ] = another dose, or the depositor's remark. Compounds with a hit are over-represented: about 3.7% of the library has one in this group of screens. Unless noted, calls come from the whole dose curve; as a rule, active = well fitted curve in the direction sought with a large enough effect; inconclusive = small, poorly fitted or top-dose-only effect, or another doubt; inactive = no such curve, though single readings can be large; an effect the other way counts as inactive or inconclusive.

Chains of the proteins cited; added tags and fusions are not shown.
ATP-dependent Clp protease proteolytic subunit (Bacillus subtilis (strain 168)), P80244, UniProt P80244, whole entry, looked up: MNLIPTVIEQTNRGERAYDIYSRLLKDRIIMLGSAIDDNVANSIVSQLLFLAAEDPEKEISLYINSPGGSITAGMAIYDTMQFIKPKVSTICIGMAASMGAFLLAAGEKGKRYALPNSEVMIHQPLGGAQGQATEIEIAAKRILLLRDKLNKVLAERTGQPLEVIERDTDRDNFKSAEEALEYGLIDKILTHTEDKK

nr	Structure	Nrf2 activator	Nrf2 inh	ClpP mod
1	Cc1cc(N2CCN(C)CC2)ccc1NC(=O)c1c2c(nc3ccccc13)CCN(Cc1ccccc1)C2	28.1%	18.4µM*	-1.0%
2	CCOC(=O)c1c(C)[nH]c(C)c1S(=O)(=O)N1CCC(C(=O)Nc2cc(Cl)ccc2OC)CC1	3.2%	-0.8%	-6.6%
3	COC(=O)c1sc(-c2cccs2)cc1NC(=O)/C=C/C(=O)O	15.8µM*	11.0%	nt
4	O=c1cc(N2CCNCC2)nc2sc(-c3ccncc3)nn12	nt	16.3%	nt
5	O=C(Nc1cc(Br)ccc1O)c1cnn2c(C(F)F)cc(C3CC3)nc12	2.51µM*	-6.4%	nt
6	O=C(CNC(=O)c1cc2c(n(-c3ccccc3)c1=O)CCCC2=O)c1ccccc1	-0.6%	-6.0%	28.2µM*
7	CC1(C)CC(=O)c2cc(C(=O)NCc3ccco3)c(=O)n(-c3ccccc3)c2C1	6.3%	3.0%	28.2µM*
8	C(=N\C(/N=C/c1ccco1)c1ccco1)/c1ccco1	?	18.4%	15.8µM*
9	O=C(NCCc1ccccc1)c1oc2ccccc2c1COc1ccccc1	3.2%	-9.1%	0.1%
10	O=C(Nc1ccccc1Cc1ccccc1)c1oc2ccccc2c1COc1ccccc1	-0.6%	9.4%	28.2µM*
11	CC(=O)c1ccccc1NC(=O)c1ccc(OCc2c(C)noc2C)cc1	2.4%	13µM*	nt
12	CCN(c1ccccc1)S(=O)(=O)c1ccc(OCc2c(C)noc2C)cc1	-0.3%	-29.2%	0.4%

nr	TCR act	A549 viability	miR-21 reporter
1	-0.8%	10.3µM*	-26.1%
2	nt	-10.1%	4.1%
3	27.0%	-6.7%	3.0%
4	nt	-2.0%	nt
5	nt	7.9%	-11.7%
6	0.2%	-5.3%	?
7	-7.5%	1.0%	-13.6%
8	-0.8%	4.7%	-17.6%
9	1.1%[46.1 µM]	-8.4%	-13.4%
10	4.9%[46.1 µM]	10.3%	-2.7%
11	3.4%	0.2%	nt
12	-8.0%	-6.5%	-3.2%

Three entries from above, with one line to a screen.
12) CCN(c1ccccc1)S(=O)(=O)c1ccc(OCc2c(C)noc2C)cc1
8) C(=N\C(/N=C/c1ccco1)c1ccco1)/c1ccco1
2) CCOC(=O)c1c(C)[nH]c(C)c1S(=O)(=O)N1CCC(C(=O)Nc2cc(Cl)ccc2OC)CC1

Assay by compound,12,8,2
Nrf2 activator,-0.3%,?,3.2%
Nrf2 inh,-29.2%,18.4%,-0.8%
ClpP mod,0.4%,15.8µM*,-6.6%
TCR act,-8.0%,-0.8%,nt
A549 viability,-6.5%,4.7%,-10.1%
miR-21 reporter,-3.2%,-17.6%,4.1%

Continued:
nr	Structure	Nrf2 activator	Nrf2 inh	ClpP mod
13	Cc1noc(C)c1COc1ccc(C(=O)N2CCN(c3cccc(Cl)c3)CC2)cc1	-0.4%	23.1µM*	-1.9%
14	CCN(C(=O)COC(=O)c1ccc(OCc2c(C)noc2C)cc1)c1ccccc1	-0.4%	nt	25.1µM*
15	COc1cccc(-c2nn(C)c3sc(C(=O)NCCc4cccc(C)c4)cc23)c1	-0.3%	?	3.6%
16	CC1CCN(C(=O)CCCC(=O)N2CCC(C)CC2)CC1	-0.9%	14.1%	-0.5%
17	COc1ccccc1CNC(=O)c1cc2cccc3c2n1CC(C)S3 (configuration not stated)	3.4%	-10.9%	31.6µM*
18	COc1ccccc1CNC(=O)CCC(=O)N1CC(C)Sc2ccccc21 (configuration not stated)	-0.4%	-4.4%	-4.1%
19	CC1Cn2c(C(=O)NCCc3ccc(Cl)cc3)cc3cccc(c32)S1 (configuration not stated)	0.2%	19.7%	31.6µM*
20	Cc1ccccc1CNC(=O)c1cc2cccc3c2n1CC(C)S3 (configuration not stated)	4.5%	17.2%	39.8µM*
21	CC1Cn2c(C(=O)NCc3ccccc3Cl)cc3cccc(c32)S1 (configuration not stated)	4.2%	18.9%	28.2µM*
22	COc1ccc(NC(=O)CC(C)CC(=O)NCc2ccc(F)cc2)c(OC)c1 (configuration not stated)	-0.5%	2.4%	1.0%
23	[O-]/[N+](=C/c1ccccc1)c1ccccc1	3.7%	-7.3%	0.6%
24	Cc1nn(C)c2c1c(C(F)(F)F)cc(=O)n2CC(=O)NCCC(C)C	-0.3%	39.5%	4.6%
25	Nc1c(S(=O)(=O)c2ccccc2)c2nc3ccccc3nc2n1CCN1CCOCC1	-0.4%	-12.9%	3.9%

nr	TCR act	A549 viability	miR-21 reporter
13	-0.7%	-4.9%	nt
14	7.0%	0.7%	3.9%
15	nt	-7.9%	27.7%
16	-1.3%	-1.8%	-1.0%
17	nt	?	-0.7%
18	3.8%	11.4%	3.3%
19	nt	10.7%	-4.4%
20	nt	13.2%	5.6%
21	nt	9.4%	11.9%
22	1.2%	-2.5%	-0.3%
23	-1.0%	-5.5%	nt
24	nt	1.6%	-3.5%
25	-2.8%	-0.2%	-5.2%
